The target of this experiment is S-adenosylmethionine synthase isoform type-2 (Homo sapiens, UniProt P31153). The experiment is described as follows: Inhibition of recombinant human MAT2A expressed in baculovirus infected Sf9 cells assessed as S-adenosyl methionine production using L-methionine as substrate incubated for 60 mins followed by substrate addition and measured after 60 mins relative to control. On the set-up: concentration or dose not given beside the values.

Chains of the proteins cited; added tags and fusions are not shown.
UniProt P31153, whole entry, looked up: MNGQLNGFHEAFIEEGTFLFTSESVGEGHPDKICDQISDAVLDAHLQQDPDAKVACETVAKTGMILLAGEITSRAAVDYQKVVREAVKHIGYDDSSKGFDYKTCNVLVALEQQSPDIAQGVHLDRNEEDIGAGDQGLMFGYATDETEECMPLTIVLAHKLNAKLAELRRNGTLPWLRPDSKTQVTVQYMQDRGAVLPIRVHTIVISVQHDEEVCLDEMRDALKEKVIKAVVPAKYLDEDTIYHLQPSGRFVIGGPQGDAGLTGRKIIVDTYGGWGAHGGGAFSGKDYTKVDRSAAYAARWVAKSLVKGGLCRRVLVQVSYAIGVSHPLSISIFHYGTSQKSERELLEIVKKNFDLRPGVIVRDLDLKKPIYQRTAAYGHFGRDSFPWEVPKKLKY

Consider one molecule from ChEMBL document CHEMBL4834423, “Discovery of AG-270, a First-in-Class Oral MAT2A Inhibitor for the Treatment of Tumors with Homozygous MTAP Deletion” (J Med Chem, 2021).

Turning to `Cc1cc(=O)n2nc(C3=CCCCC3)c(-c3ccccc3)c2[nH]1`, the inhibition (as a rule, the share of the control response that was lost under treatment) came out at 55%.
